# scFv variants of Ab-14 (heavy chain) against a SARS-CoV-2 spike peptide

Values reported by Engelhart et al. 2022, doi:10.1038/s41597-022-01779-4 (FLAb copy).

Target: peptide PDVDLGDISGINAS, taken from heptad repeat 2 (HR2) of SARS-CoV-2 spike.

Each scFv is VH, a 15-residue (Gly4Ser)3 linker, VL, as in the parent Ab-14, and differs from it in the CDRs of the heavy chain only.
VH: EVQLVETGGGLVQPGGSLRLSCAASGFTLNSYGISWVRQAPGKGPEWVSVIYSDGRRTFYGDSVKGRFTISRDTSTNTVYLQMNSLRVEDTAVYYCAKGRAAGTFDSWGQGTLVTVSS
VL: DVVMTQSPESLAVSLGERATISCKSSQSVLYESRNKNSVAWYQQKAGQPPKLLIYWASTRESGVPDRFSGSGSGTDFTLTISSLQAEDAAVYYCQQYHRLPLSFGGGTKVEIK

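The parent was found by panning a naive human phage display library on the peptide. In library AAYL49, one, two or three CDR residues were substituted; doubles and triples were drawn at random. Affinity was read by AlphaSeq, a pooled yeast mating assay with surface-displayed partners. After mating in shaken culture at 30 °C for 16 h, diploids were selected and their barcode pairs sequenced. Read counts were normalised to the haploid input and turned into Kd by a linear fit to BCL2-family pairs of known affinity, for each replicate. Mating was done three times.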

Changes read parent residue, position, new residue, counted from the first residue of the VH shown. The read-out is the apparent dissociation constant on a log10 scale (nM): the lower, the stronger. A mean of the replicates is given; it leaves out those without a signal. Where no diploid with the target was found in that replicate, the entry reads "nd": below detection, most likely a poor binder, though not proof of it.

| # | changes | log10 Kd (nM) by replicate | mean, log10 nM | control signals |
|---|---|---|---|---|
| 1 | S31Q/G33E/G103A | nd nd nd | nd | 1 of 9 (3.66) |
| 2 | G33D/G55N/A102L | nd 4.25 4.87 | 4.56 | 3 of 9 (4.26) |
| 3 | T28K/Y52W/G61I | nd 3.90 nd | 3.90 | 0 of 9 |
| 4 | Y52P/F105M/D106Q | 4.83 nd nd | 4.83 | 0 of 9 |
| 5 | G26S/Y52W/S107N | nd nd nd | nd | 0 of 9 |
| 6 | S35G/K65P/A102L | nd nd nd | nd | 2 of 9 (2.98) |
| 7 | Y60F/D62Q | nd nd nd | nd | 0 of 9 |
| 8 | G33L/Y52C/Y60L | nd nd nd | nd | 0 of 9 |
| 9 | L29C/I51N/A101K | 5.46 3.98 nd | 4.72 | 1 of 9 (4.28) |
| 10 | S31R/A101D/D106W | 1.77 1.60 1.81 | 1.73 | 4 of 9 (4.31) |
| 11 | Y32T/S63Y | 5.84 nd 5.56 | 5.70 | 3 of 9 (4.22) |
| 12 | G26Q/S53P/G99Y | nd nd nd | nd | 0 of 9 |
| 13 | F27C/L29N/D106G | 3.29 nd 3.69 | 3.49 | 2 of 9 (2.86) |
| 14 | S53A/A102Y/G103K | 0.87 1.18 1.14 | 1.06 | 1 of 9 (3.23) |
| 15 | F27G/D54T | 3.91 3.00 5.32 | 4.08 | 3 of 9 (4.72) |
| 16 | F59L/R100D/D106I | nd nd nd | nd | 0 of 9 |
| 17 | N30Q/V50E/R57E | nd nd nd | nd | 0 of 9 |
| 18 | N30Y/I51G/K65G | 4.27 nd nd | 4.27 | 2 of 9 (4.11) |
| 19 | R57G | nd 3.87 nd | 3.87 | 3 of 9 (3.87) |
| 20 | R56Y/G99S/R100T | nd nd 2.83 | 2.83 | 0 of 9 |
| 21 | D54A/G55N/Y60G | 2.39 2.21 3.25 | 2.62 | 2 of 9 (3.42) |
| 22 | I34R/V50T/S107G | 3.32 nd nd | 3.32 | 0 of 9 |
| 23 | T28C/I51N/S63K | nd 4.05 3.61 | 3.83 | 0 of 9 |
| 24 | T28W/S107H | nd nd nd | nd | 3 of 9 (4.39) |
| 25 | S35M/S53K/V64T | nd 4.38 6.14 | 5.26 | 4 of 9 (4.27) |
| 26 | L29F/Y52H/G61W | nd nd nd | nd | 1 of 9 (3.16) |
| 27 | F27Q/I34V/D62W | nd nd nd | nd | 1 of 9 (3.55) |
| 28 | F27K/L29K/V64H | 5.73 nd 4.31 | 5.02 | 1 of 9 (3.27) |
| 29 | Y32P/R57N/A102I | 4.98 3.85 nd | 4.42 | 1 of 9 (3.96) |
| 30 | S31E/T58M/R100S | nd 1.25 1.15 | 1.20 | 0 of 9 |

A selection of 2 entries from above:

| changes | log10 Kd (nM) by replicate | mean, log10 nM | control signals |
|---|---|---|---|
| F27Q/I34V/D62W | nd nd nd | nd | 1 of 9 (3.55) |
| F27K/L29K/V64H | 5.73 nd 4.31 | 5.02 | 1 of 9 (3.27) |

Parent in this assay: reference entry 0.65, copy in this library 4.11 (one replicate of three). As a blank, each scFv also met three strains without target: over library AAYL49, 15% of these pairings were detected, typically at 4.06 and seldom below 2.83. The control count says in how many pairings with the empty strains this scFv gave a signal, with their mean in brackets.